# Reported properties for industrial, environmental and drug-like chemicals

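The numbers are reported measurements, compiled and curated for the OPERA QSAR suite. The files give a single number for a compound and property, which may rest on several reports. Method, purity and exact conditions of the single measurements are not given. The measured form (salt, isomer or mixture) is not always the one drawn. Some upstream entries may be estimates or bounds without being marked so.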

The melting point is given in degrees Celsius.
Boiling points are in °C, nominally at 760 mmHg.
logP is the log10 of the octanol-water partition coefficient; higher is more lipophilic.
Water solubility is log10 of mol/L, nominally at 25 °C; higher is more soluble.
Vapor pressures (log10 mmHg) refer to near room temperature, 15 to 30 °C; higher is more volatile.
fu is the fraction unbound in human plasma, from 0 to 1.
Intrinsic clearance (human, µL/min per 10^6 hepatocytes): higher is faster turnover, and 0 stands for none detected.
"–" marks a cell with nothing listed here.

mp (°C),bp (°C),log Kow,log solubility (log10 mol/L),log VP (log10 mmHg),fu,Clint (µL/min/10^6 cells),structure (SMILES)
–,–,-0.315,-3.044,-8.253,–,–,NNC(=O)CCCCCCCCC(=O)NN
-40.7,–,–,-6.926,–,–,–,CCCCC(CC)COC(=O)C1CCC(C(=O)OCC(CC)CCCC)CC1 (configuration not stated)
–,321,2.1,-3.518,-3.354,–,–,CC(NCCCCCCNC(C)C(C)(C)C)C(C)(C)C (configuration not stated)
95.39,–,–,–,-10,–,–,CCCCCCCCSc1nc(Nc2cc(C(C)(C)C)c(O)c(C(C)(C)C)c2)nc(SCCCCCCCC)n1
56.2,–,1.4,–,–,–,–,CC(=O)OCNC(=O)c1ccccc1C(F)(F)F
77.2,–,5.52,–,-4.791,–,–,Brc1ccc(Oc2c(Br)cccc2Br)cc1
–,–,5.5,-6.153,–,–,–,CCCCN(c1nc(N(CCCC)C2CC(C)(C)NC(C)(C)C2)nc(N(CCCCCCN(c2nc(N(CCCC)C3CC(C)(C)NC(C)(C)C3)nc(N(CCCC)C3CC(C)(C)NC(C)(C)C3)n2)C2CC(C)(C)NC(C)(C)C2)C2CC(C)(C)NC(C)(C)C2)n1)C1CC(C)(C)NC(C)(C)C1
-66,–,3.9,-4.246,-1.803,–,–,CCCCCCCC[Si](OC)(OC)OC
–,–,1.74,-2.979,-6.806,–,–,COc1cc(NC(=O)CC(C)=O)c(OC)cc1Cl
–,–,0.465,-8.151,–,–,–,O=C(Nc1cc(Cl)c(NC(=O)c2cc3ccccc3c(N=Nc3cc(Cl)ccc3Cl)c2O)cc1Cl)c1cc2ccccc2c(N=Nc2cc(Cl)ccc2Cl)c1O
-9.6,–,–,–,-4.126,–,–,CCCCC[C@H]1CC[C@H](c2ccc(CCC)cc2)CC1
29.8,–,2.82,-5.625,–,–,–,CC(C)CCC(C)Nc1ccc(Nc2ccccc2)cc1 (configuration not stated)
–,–,3.2,-3.708,–,–,–,Oc1ccc(OCc2ccccc2)cc1
–,244,2,–,–,–,–,CC(CN)CCCCCCN (configuration not stated)
–,–,5.875,-7.652,0.832,–,–,CCOC(F)(C(F)(F)C(F)(F)C(F)(F)F)C(F)(C(F)(F)F)C(F)(F)F (configuration not stated)
175.8,–,–,-2.682,–,–,–,CC(C)(C)OC(=O)N[C@@H](C(=O)N1[C@@H]2C[C@@H]2C[C@@H]1C#N)C12CC3CC(CC(O)(C3)C1)C2
–,–,5.831,-5.965,0.544,–,–,C=CC(C)CCC=C(C)C (configuration not stated)
229.2,–,1.6,-4.274,-12.59,–,–,CCOC(=O)c1cn(C2CC2)c2cc(F)c(F)cc2c1=O
91,–,-1.83,–,–,–,–,C[N+](C)(Cc1ccccc1)Cc1ccccc1.[Cl-]
82.5,–,–,-7.315,–,–,–,CCN(CCC(=O)OC)c1ccc(N=Nc2snc3ccc([N+](=O)[O-])cc23)cc1
95.5,–,–,-5.526,-7.824,–,–,CCCCCCCCCCCCCCCC(=O)N[C@H](C(=O)O)[C@@H](C)CC
–,–,-1,-1.33,–,–,–,COc1nc(N)nc2c1ncn2[C@@H]1O[C@H](CO)[C@@H](O)[C@@H]1O
–,–,1.6,-1.83,–,–,–,CC(C)(O)c1cccc(C(C)(C)O)c1
–,–,–,–,–,0.0203,230,COc1ccc(-c2coc3cc(O)cc(O)c3c2=O)cc1
–,–,–,-2.05,-7.714,–,–,CC(C)(C)c1n[nH]c(=O)n(N)c1=O
221.2,–,–,-1.85,-9.218,–,–,N#Cc1ccc(N=C(N)N)cc1

Values as listed in the OPERA 2.9 repository of K. Mansouri.